The structures appear in SMILES notation.

By UniProt entry, the sequences of proteins in these tests, tags left out.
UniProt P37231, whole entry: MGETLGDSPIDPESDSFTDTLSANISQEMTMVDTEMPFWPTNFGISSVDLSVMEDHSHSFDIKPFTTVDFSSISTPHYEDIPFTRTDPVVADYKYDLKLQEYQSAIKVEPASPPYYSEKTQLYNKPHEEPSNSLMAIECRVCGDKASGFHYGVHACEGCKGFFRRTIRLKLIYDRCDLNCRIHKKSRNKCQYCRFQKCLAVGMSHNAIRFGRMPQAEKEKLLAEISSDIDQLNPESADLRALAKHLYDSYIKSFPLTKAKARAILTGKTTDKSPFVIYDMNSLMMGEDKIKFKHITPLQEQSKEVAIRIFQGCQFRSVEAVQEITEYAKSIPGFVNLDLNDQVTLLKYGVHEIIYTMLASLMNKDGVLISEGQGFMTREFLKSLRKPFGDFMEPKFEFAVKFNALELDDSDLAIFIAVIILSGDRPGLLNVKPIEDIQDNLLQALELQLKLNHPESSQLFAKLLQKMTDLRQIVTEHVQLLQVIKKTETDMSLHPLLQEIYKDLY

The target in one assay is PPARγ (UniProt P37231). The experiment in a line: PPARγ ligand binding assay utilizing [3H]-BRL 49653 as the radioligand. The following applies: concentration required to reduce specific binding by 50%.
The subject of another assay is KK-Ay mice. The assay can be described thus: anti-diabetic efficacy in KK-Ay mice (change in serum glucose levels). The following applies: 0.018% (30 mg/kg) dietary admixture in powdered diet, change in serum glucose levels compared to untreated control animals.

Turning to `O=S(=O)(Nc1cc(Cl)c(Nc2nc3ccc(Cl)cc3s2)c(Cl)c1)c1ccc(C(F)(F)F)cc1Cl`, the IC50 at PPARγ is < 1000 nM. Moreover, the “KKAy Glucose” value with KK-Ay mice is reported as “+ ((+) 10% to 20%)”.

Take `Cc1ccc2nc(Nc3c(Cl)cc(NS(=O)(=O)c4ccc(C(F)(F)F)cc4Cl)cc3Cl)sc2c1`: on PPARγ, the half-maximal inhibitory concentration (IC50) was < 1000 nM. Moreover, the “KKAy Glucose” value in the assay on KK-Ay mice is listed as “− ((−) <10%)”.

Consider `O=S(=O)(Nc1ccc(Sc2ccc(Cl)c(Cl)c2)c(Cl)c1)c1ccc(Cl)cc1Cl`, for which the 50% inhibitory concentration (IC50) on PPARγ is < 1000 nM.

On to `O=S(=O)(Nc1ccc(Sc2ccc(Cl)c(Cl)c2)c(Cl)c1)c1ccc(Cl)c(Cl)c1`, for which the IC50 on PPARγ was < 10000 nM.

Take `O=S(=O)(Nc1ccc(Sc2ccc(Cl)c(Cl)c2)c(Cl)c1)c1ccc(I)cc1`: on PPARγ, the concentration for half-maximal inhibition (IC50) is < 10000 nM.

Usually IC50 stands for the concentration that gives 50% inhibition. Low values mean greater potency, high ones weaker potency.

The values are drawn from US20050250820A1, “Therapeutic modulation of PPARgamma activity” (Amgen Inc., priority 2004, published 2005).
